From patent publication US20210023238A1, “TRIPTOLIDE ANTIBODY CONJUGATES” (City of Hope, priority 2019, published 2021) come the findings set out here.

For one data set, the system named is H1299 NSCLC cells. Briefly: CCK-8 cell proliferation / cytotoxicity, H1299. The format is cell-based. The note with it: H1299 (EGFR+++), 72 h, CCK-8, 3.125-100 ug/ml tested. As to the method: (§1) The cytotoxic effects of TPL, Cet, Cet-TPL on non-small cell lung cancer (NSCLC) cell proliferation was determined using Cell Counting Kit-8 (CCK-8) kit. H520, H1299, and A549 cells were plated at a density of 3×10^3 cells/well in 96-well multiplates. After 24 h, 3.125-100 ug/ml of IgG, Cetuximab, Cet-TPL-DAR-0.4, Cet-TPL-DAR-2, Cet-TPL-DAR-4, Cet-TPL-DAR-6 were added to wells respectively and further incubated with cells for 72 h. Then after, 10 ul of CCK-8 solution was added to each well and further developed for 2 h. The absorbance values were detected at a wavelength of 450 nm using a Bio-Rad microplate reader. The cell viability was calculated by the optical density (OD) values of treated groups/OD values of control groups (Vehicle/PBS)×100%. IgG was also used as a control for Cetuximab in some experiments.

For another data set, the system named is H520 NSCLC cells. As to the kind of experiment: CCK-8 cell proliferation / cytotoxicity, H520. The note with it: H520 (EGFR+/-), 72 h, CCK-8, 3.125-100 ug/ml tested. The class given is cell-based. As to the method:
as §1

The subject of another data set is A549 NSCLC cells. As to the kind of experiment: CCK-8 cell proliferation / cytotoxicity, A549. The note with it: A549 (EGFR+++), 72 h, CCK-8, 3.125-100 ug/ml tested. The class given is cell-based. As to the method: as §1
Data set [1] relates to NSCLC cells (H520, H1299, A549). Briefly: CCK-8 cell proliferation / cytotoxicity, NSCLC cell lines overall. The class given is cell-based. The note with it: regardless of EGFR expression level; result in words. As to the method:
as §1
Cetuximab-Triptolide conjugates have various cytotoxic effects in these cells.

The test system of data set [2] is lung squamous cancer patient-derived xenograft 1 (PDX1). Briefly: PDX1 xenograft, Ki-67 immunohistochemistry. The note with it: PDX1 xenografts; compared to Vehicle and TPL or Cetuximab alone; FIG. 20. The format is in vivo, mice. As to the method:
FIGS. 20A-20B present illustrative data showing the effects of Cetuximab-TPL on A549 xenografts. FIG. 20A immunohistochemistry staining of proliferation marker Ki-67 in PDX1 xenografts treated with either Vehicle (IgG, 50 mg/Kg, panel A), Triptolide (0.5 mg/Kg, panel B), Cetuximab (50 mg/Kg, panel C), or Cetuximab-TPL (50 mg/Kg, panel D). These images were taken at a magnification of ×200.
NOD/SCID/IL2Rgamma null mice (NSG) mice (Jackson Labs, Bar Harbor, Me.; 24-27 g, 6-8 weeks of age) were used for xenograft experiment. A suspension of 5×10^6 A549 and H520 cancer cells in 0.1 ml DMEM or RPMI 1640 was mixed with 0.1 ml BD Matrigel™ (BD Science) and injected into the subcutaneous dorsa of mice at the proximal midline. When the tumor volume was about 90-110 mm^3, mice were randomized into 5 treatment groups, and each group included 8 mice. […] Xenograft growth in vivo was measured during whole period of treatment, and tumor volume were calculated and presented as
(§2) The xenograft tissues were then fixed and analyzed by IHC. […] The positively stained cancer cells were counted, and the percentages of positively stained cancer cells to total cancer cells were quantitative analysed.

In another data set the test system is A549 cells. Briefly: Internalization: immunofluorescence of labeled Cet-TPL with LysoTracker. The note with it: Alexa-red labeled Cet-TPL, LysoTracker Green; FIG. 25A. The format is cell-based. The source says:
FIGS. 25A-25B present illustrative data showing internalization and distribution of Cetuximab-Triptolide (Cet-TPL) in EGFR-expressing cancer cells and xenografts.

For a further data set, the system named is A549 xenografts. As to the kind of experiment: A549 xenograft, Ki-67 immunohistochemistry. The format is in vivo, mice. The note with it: i.p. twice/week, compared to Vehicle and TPL or Cetuximab alone, FIG. 17. As to the method:
NOD/SCID/IL2Rgamma null mice (NSG) mice (Jackson Labs, Bar Harbor, Me.; 24-27 g, 6-8 weeks of age) were used for xenograft experiment. A suspension of 5×10^6 A549 and H520 cancer cells in 0.1 ml DMEM or RPMI 1640 was mixed with 0.1 ml BD Matrigel™ (BD Science) and injected into the subcutaneous dorsa of mice at the proximal midline. When the tumor volume was about 90-110 mm^3, mice were randomized into 5 treatment groups, and each group included 8 mice. Mouse treatment was performed by intraperitoneal injection of either Vehicle (PBS), 0.5 or 1.0 mg/Kg of Triptolide, 50 mg/Kg of Cetuximab, or 25 or 50 mg/Kg of Cetuximab-TPL in 100 μl of PBS, twice/week for about 2 to 3.5 weeks. Xenograft growth in vivo was measured during whole period of treatment, and tumor volume were calculated and presented as
in unit of mm^3. At the end of experiment, mice were euthanized and xenograft tissues were removed and weighted. Exemplary results are shown in FIG. 15 and FIG. 18 (growth inhibition (size over time)) and FIG. 16 and FIG. 19 (in vivo antitumor effect (weight over time)).
as §2

Broadly, the IC50 is the concentration needed to halve the response being measured. Low readings indicate higher potency, high ones lower potency. For the substance cetuximab [reference compound], the IC50 with H1299 NSCLC cells, in the data set with H520 NSCLC cells and in the data set with A549 NSCLC cells was >100 µg/mL each time. In addition, in data set [1], the “in vitro proliferation of NSCLC cells / cytotoxic effects” value is recorded as “did not significantly suppress”.

For “CET-TRP DAR-4: Cetuximab-TPL conjugate, 20 eq TPL-NHS per Cetuximab small scale, drug to antibody ratio 4”, the IC50 with H1299 NSCLC cells is <25 µg/mL; in the data set with H520 NSCLC cells it was 50 to 100 µg/mL; with A549 NSCLC cells it was <50 µg/mL. Moreover, the “in vitro proliferation of NSCLC cells / cytotoxic effects” value in data set [1] is listed as “stronger than DAR-2”.

As to “CET-TRP DAR-2: Cetuximab-TPL conjugate, 10 eq TPL-NHS per Cetuximab, drug to antibody ratio 2”, the figures for the IC50 with H1299 NSCLC cells, in the data set on H520 NSCLC cells and with A549 NSCLC cells were <50 µg/mL, 50 to 100 µg/mL and <100 µg/mL, respectively.

Cetuximab-TPL: the “percentage of the Ki67-positive cancer cells” value (in data set [2]; with A549 xenografts) was “significantly decreased” throughout. In the data set on A549 cells, the “localization of Cet-TPL and lysosome” value was “colocalization of Cet-TPL and lysosome stains”.

For “CET-TRP DAR-0.4: Cetuximab-TPL conjugate, 5 eq TPL-NHS per Cetuximab, drug to antibody ratio 0.4”, the IC50 in the data set on H1299 NSCLC cells was ~50 µg/mL; in the data set on H520 NSCLC cells it was 100 µg/mL; with A549 NSCLC cells it was <100 µg/mL. In addition, in data set [1], the “in vitro proliferation of NSCLC cells / cytotoxic effects” value is “the least efficient”.
